Experimental data taken from ChEMBL document CHEMBL1139597, “Evaluation of 3-substituted arginine analogs as selective inhibitors of human nitric oxide synthase isozymes” (Bioorg Med Chem Lett, 2005).

Chains of the proteins cited; added tags and fusions are not shown.
UniProt P29475, whole entry: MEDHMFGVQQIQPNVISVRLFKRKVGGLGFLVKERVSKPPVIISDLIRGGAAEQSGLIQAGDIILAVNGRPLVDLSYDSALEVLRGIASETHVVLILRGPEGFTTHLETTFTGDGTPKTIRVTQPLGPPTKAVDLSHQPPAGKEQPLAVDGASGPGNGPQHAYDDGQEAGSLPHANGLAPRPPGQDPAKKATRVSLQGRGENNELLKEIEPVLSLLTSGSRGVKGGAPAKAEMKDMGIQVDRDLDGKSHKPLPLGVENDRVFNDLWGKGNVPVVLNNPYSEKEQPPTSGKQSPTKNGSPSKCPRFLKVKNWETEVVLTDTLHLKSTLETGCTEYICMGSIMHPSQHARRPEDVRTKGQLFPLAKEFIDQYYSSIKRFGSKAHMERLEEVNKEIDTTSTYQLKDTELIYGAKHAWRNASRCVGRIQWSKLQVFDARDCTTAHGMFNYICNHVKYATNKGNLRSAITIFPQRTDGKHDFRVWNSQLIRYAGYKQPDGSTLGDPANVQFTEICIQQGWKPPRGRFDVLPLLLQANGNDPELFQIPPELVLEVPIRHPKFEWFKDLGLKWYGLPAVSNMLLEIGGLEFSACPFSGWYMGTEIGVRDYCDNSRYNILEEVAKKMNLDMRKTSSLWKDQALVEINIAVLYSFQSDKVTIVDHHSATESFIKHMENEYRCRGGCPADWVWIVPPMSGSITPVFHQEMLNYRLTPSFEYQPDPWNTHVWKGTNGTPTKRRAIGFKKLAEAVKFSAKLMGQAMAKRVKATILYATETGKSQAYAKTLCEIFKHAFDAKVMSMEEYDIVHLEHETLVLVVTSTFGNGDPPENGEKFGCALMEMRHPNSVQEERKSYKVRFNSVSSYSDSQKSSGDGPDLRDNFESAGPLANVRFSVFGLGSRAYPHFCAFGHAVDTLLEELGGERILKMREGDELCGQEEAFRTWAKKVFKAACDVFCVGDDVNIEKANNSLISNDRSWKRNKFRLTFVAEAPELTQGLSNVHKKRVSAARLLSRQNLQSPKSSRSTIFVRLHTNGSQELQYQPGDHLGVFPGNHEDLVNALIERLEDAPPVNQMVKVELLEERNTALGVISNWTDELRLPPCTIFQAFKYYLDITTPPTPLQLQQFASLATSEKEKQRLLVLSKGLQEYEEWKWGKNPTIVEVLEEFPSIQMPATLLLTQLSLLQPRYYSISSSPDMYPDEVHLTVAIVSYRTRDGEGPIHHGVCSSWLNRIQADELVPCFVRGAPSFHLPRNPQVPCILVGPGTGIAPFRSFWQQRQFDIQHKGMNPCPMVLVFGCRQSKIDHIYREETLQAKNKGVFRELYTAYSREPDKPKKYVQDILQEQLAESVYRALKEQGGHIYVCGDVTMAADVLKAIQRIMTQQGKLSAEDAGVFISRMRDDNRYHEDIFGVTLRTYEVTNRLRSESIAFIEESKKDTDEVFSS

Biological target: Nitric oxide synthase 1 (Homo sapiens, UniProt P29475)
Assay: Inhibitory concentration against human neuronal nitric oxide synthase expressed in Sf-9 cells
Outline: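 Recombinant human NOS isozyme produced in Sf-9 insect cells. Enzyme activity was followed as conversion of [¹⁴C]-L-Arg to [¹⁴C]-L-Cit, and IC50 was calculated from the concentration dependence of inhibition. Inhibitors were tested up to 1 mM.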

CC(=N)NCCC[C@H](N)C(=O)O [L-NIO]
IC50: 9 µM
